Like-named read-outs stand apart in the source and are kept apart here.
How the values were obtained:
[1] = Relaxivity of the compound in water; assay type: physicochemical; details: deionized water
Description: Test example 1: Relaxivity of the compound in water
Niumag (Suzhou) Nuclear Magnetic Resonance Contrast Agent Relaxivity Analyser with a 0.5 T magnetic field
Bruker Small Animal Magnetic Resonance Imaging System (BioSpec 70/20 USR) with a 7 T magnetic field
1 mL of the test sample was placed in a 1.5 mL EP (eppendorf) tube, and the longitudinal relaxation time T1 and transverse relaxation time T2 under different magnetic field conditions were measured separately using the Niumag (Suzhou) Nuclear Magnetic Resonance Contrast Agent Relaxivity Analyser with a 0.5 T magnetic field. The test sample was loaded into a 0.2 mL sample tube until full, and the longitudinal relaxation time T1 and transverse relaxation time T2 under different magnetic field conditions were measured separately using the Bruker Small Animal Magnetic Resonance Imaging System (BioSpec 70/20 USR) with a 7 T magnetic field.
(§1) Based on the relaxation times T1 and T2 of samples at different concentrations, the relaxivities r1 and r2 were calculated respectively. The relaxivity was calculated according to the following equation: r = (1)/(ΔT)/C, [formula] r: relaxivity; T: relaxation time (s); C: contrast agent concentration (mM).

[2] = Metal transfer stability test in the presence of zinc ions; assay type: physicochemical; details: equal volumes 2.5 mM contrast agent and 2.5 mM ZnCl2, phosphate buffer, 37°C, 0.5 T
Description: Test example 4: Metal transfer stability test of compounds in the presence of zinc ions • 1 . Experimental protocol • 2. […] Experiment instruments: VTMR20-010V-I Nuclear Magnetic Resonance Cross-Linking Density Imaging Analyser • 4. Experimental method
A 2.5 mM solution of contrast agent solutions and a 2.5 mM solution of zinc chloride were respectively prepared in phosphate buffer (0.026 mol/L KH2PO4 and 0.041 mol/L Na2HPO4). An equal volume of a 2.5 mM ZnCl2 solution was added to the a 2.5 mM gadolinium contrast agent solution, and the mixture was mixed by shaking. This moment of complete mixing was designated as time zero (t = 0). Immediately thereafter, a 0.5 mL aliquot was withdrawn and subjected to measurement of the longitudinal relaxation time, T1(0), at 37°C and a magnetic field strength of 0.5 T. The mixed solution was then incubated at 37°C. 0.5 mL of the solution was taken at time points of 5 min, 180 min, 1440 min and 5760 min, respectively, to determine T1(t) at different time points. The ratio of the relaxivity at different time points to the initial relaxivity at time 0, namely R1(t)/R1(0), was calculated.

[3] = Relaxivity of compounds in human plasma; assay type: physicochemical; details: human plasma containing sodium heparin, 0.5 T
Description: as §1

canine plasma proteins = details: dog, 1000 µM
Description: After the preparation of plasma samples, 0.5 mL of plasma samples were transferred into ultracentrifugation tubes, with 3 replicates per concentration. After incubation in a CO2 incubator at 37°C for 0.5 h, the samples were subjected to ultracentrifugation at 627,000 g for 3 hours at 37°C. After centrifugation, 100 µL of samples were taken from the central layer of the ultracentrifugation tubes and mixed with 100 µL of blank plasma. The samples were stored at -70°C for subsequent determination.
The plasma protein binding rates of analytes at different concentration levels were calculated using the following formulas: [formula] Binding rate% = 100%−Free rate%. [formula]

[4] = hydrochloric acid pH 1.2, 37°C, 8 × 10^-6 M, 0 h
[5] = hydrochloric acid, 96 h, 8 µM, pH 1.2
[6] = hydrochloric acid, 168 h, 8 µM, pH 1.2

Substance	Gd^3+ Dissociation rate (%) [4]	Gd^3+ Dissociation rate (%) (hydrochloric acid, 24 h, 8 µM, pH 1.2)	Gd^3+ Dissociation rate (%) (hydrochloric acid, 48 h, 8 µM, pH 1.2)	Gd^3+ Dissociation rate (%) [5] [%]	Gd^3+ Dissociation rate (%) [6] [%]	Relaxivity r1 ([1]; 0.5 T) [mM⁻¹ s⁻¹]	Relaxivity r1 ([1]; 7 T) [mM⁻¹ s⁻¹]	Gd^3+ Dissociation rate (%) (hydrochloric acid pH 1.2, 37°C, 8 × 10^-6 M, 24 h)	Gd^3+ Dissociation rate (%) (hydrochloric acid pH 1.2, 37°C, 8 × 10^-6 M, 48 h)	R1(t)/R1(0) ([2]; 0 min)	R1(t)/R1(0) ([2]; 5 min)	R1(t)/R1(0) ([2]; 180 min)	R1(t)/R1(0) ([2]; 1440 min)	R1(t)/R1(0) ([2]; 5760 min)	Relaxivity r1 [3] [mM⁻¹ s⁻¹]	Average% (binding rate) (canine plasma proteins) [%]
2,2',2'-(1^3-methoxy-3,6,9-triaza-1(2,6)-pyridine cyclodecane-3,6,9-triyl)tris(5-((2,3-dihydroxypropyl)amino)-5-oxopentanedioic acid)gadolinium (III) complex [Compound 5]	BLQ	24.1	28.7	32.3	42.1	9.3	5.2									
2,2',2'-(1^4-methoxy-3,6,9-triaza-1(2,6)-pyridine cyclodecane-3,6,9-triyl)tris(5-((2,3-dihydroxypropyl)amino)-5-oxopentanedioic acid)gadolinium (III) complex [Compound 4]	BLQ			0.59	23.9	15.5	10.7	BLQ	BLQ	1	0.77	0.91	0.89	1.05	16.0	19.6

Source: patent EP4772508A1, “MACROCYCLIC COMPOUND AND USE THEREOF” (Jiangsu Hengrui Pharmaceuticals Co., Ltd., priority 2023, dated 2025)
